{
  "source": "patent US20050209157A1",
  "about": "“Short bioactive peptides and methods for their use” (priority 2001, published 2005)",
  "key": {"in vitro [1]": {"assay": "in vitro", "settings": "human, WI38 normal lung fibroblast cells, 24 hours with peptide"}, "in vitro [2]": {"assay": "in vitro", "format": "cell-based", "settings": "human, human red blood cells, pH 7, hemolytic assay, concentration at 50% hemolysis, 1 hour at 37° C.; read-out: LD50", "description": "This hemolytic assay is based upon that presented in Journal of Peptide Research 53: 82-90 (1999). […] All procedures were performed according to safety protocols pertaining to the handling and disposal of human body fluids.\nRed blood cells (RBCs) were washed three times with PBS (35 mM phosphate buffer 0.15 M NaCl, pH 7.0). RBCs suspended in PBS (0.4% (v/v); about 10 ml per 15 peptides) were prepared. Suspensions (100 μl) were aliquoted to each sample and control tube. Serially diluted peptide solutions (100 μl) were pipetted into the sample tubes. Negative control tubes contained 100 μl PBS; positive control tubes contained 100 μl 1% Triton-X100 detergent. All tubes were incubated for 1 hour at 37° C. The tubes were removed from the incubator and centrifuged at 1000 g for 5 minutes. Supernatant (100 μl) was pipetted to a 96-well polyvinyl chloride plate. The absorbance at 414 nm (A414) was measured, and used to calculate the percent hemolysis according to the following formula. [formula]"}, "[3]": {"tested_on": "Pseudomonas aeruginosa ATCC 27853", "assay": "Antimicrobial assay I, modified protocol (tryptic soy broth), MBC", "settings": "minimum bactericidal concentration, Table 4"}, "[4]": {"tested_on": "Stapholococcus aureus ATCC 25923", "assay": "Antimicrobial assay I, modified protocol (tryptic soy broth), MBC", "settings": "minimum bactericidal concentration, Table 4"}, "cancer cell lines": {"tested_on": "cancer cell lines", "assay": "Anti-cancer assays, MTT, summary over the cancer cell lines", "format": "cell-based", "settings": "X = preferred"}, "[5]": {"tested_on": "Escherichia coli ATCC 25922", "assay": "Antimicrobial assay I, modified protocol (tryptic soy broth), MBC", "settings": "minimum bactericidal concentration, Table 4"}, "[6]": {"tested_on": "Candida albicans ATCC 10231", "assay": "Antimicrobial assay I, modified protocol (tryptic soy broth), MFC", "settings": "minimum fungicidal concentration, Table 4"}, "WI38": {"tested_on": "WI38", "settings": "MTT, 24 hours with peptide; normal fibroblast line"}, "HeLaS3": {"tested_on": "HeLaS3", "assay": "Anti-cancer assay, MTT, LD50", "format": "cell-based", "settings": "24 hours with peptide, cervical carcinoma", "excerpt": "(§1) Numbers are LD50 values (μg/mL)."}, "PC3": {"tested_on": "PC3", "assay": "Anti-cancer assay, MTT, LD50", "format": "cell-based", "settings": "24 hours with peptide, prostate adenocarcinoma", "excerpt": "as §1"}, "H1299": {"tested_on": "H1299", "assay": "Anti-cancer assay, MTT, LD50", "format": "cell-based", "settings": "24 hours with peptide, lung large cell carcinoma", "excerpt": "as §1"}, "MCF7": {"tested_on": "MCF7", "assay": "Anti-cancer assay, MTT, LD50", "format": "cell-based", "settings": "MCF7 breast adenocarcinoma line, 24 hours with peptide", "excerpt": "as §1"}, "[7]": {"tested_on": "Pseudomonas aeruginosa ATCC 9027", "assay": "Antimicrobial assay I, MIC by OD measurement", "format": "cell-based", "settings": "37° C. for 24 hours, absorbance 620 nm", "excerpt": "(§2) The data for the following antimicrobial assay of the peptides have been obtained by making OD measurements in in vitro cell culture experiments with and without added peptide. The protocol used is as follows.\n(§3) Cell lines included Staphylococcus aureus ATCC 6538 or 25923, Pseudomonas aeruginosa ATCC 9027 or 27853. Medium used were Antibiotic Medium 3 (Difco), Antibiotic Medium 2 (Difco), and 0.85% saline. Controls used were physiological saline, and gentamycin at 50, 25, 10, 5, 1, and 0.1 ppm.\n(§4) Absorbance was read at 620 nm after shaking to resuspend cells.\n(§5) Staph6538 is Staphylococcus aureus ATCC accession number 6538; paerug9027 is Pseudomonas aeruginosa ATCC accession number 9027, yeast is Saccharomyces cerevisiae."}, "[8]": {"tested_on": "Staphylococcus aureus ATCC 6538", "assay": "Antimicrobial assay I, MIC by OD measurement", "format": "cell-based", "settings": "37° C. for 24 hours, absorbance 620 nm", "excerpt": "as §2, §3, §4, §5"}, "[9]": {"tested_on": "yeast (Saccharomyces cerevisiae)", "assay": "Antimicrobial assay I, yeast assay in RPMI 1640", "format": "cell-based", "settings": "RPMI 1640 media", "description": "as §2, §4\nThe yeast assay was performed in RPMI 1640 media (pH 7.0 at 25° C.).\nas §5"}, "P. aeruginosa H374": {"tested_on": "P. aeruginosa H374", "format": "cell-based, Pseudomonas aeruginosa", "settings": "Table 9; in µg/mL"}, "[10]": {"tested_on": "Pseudomonas aeruginosa H187", "format": "cell-based", "settings": "Table 9; in µg/mL"}, "[11]": {"tested_on": "Pseudomonas aeruginosa 105663", "format": "cell-based", "settings": "Table 9; in µg/mL"}, "[12]": {"tested_on": "Pseudomonas aeruginosa 100609", "format": "cell-based", "settings": "Table 9; in µg/mL"}, "[13]": {"settings": "LD50 WI38, WI38 normal lung fibroblast line, MTT"}},
  "data": [
    {"smiles": "CC(C)C[C@@H](NC(=O)[C@@H](C)NC(=O)[C@@H](CC(C)C)NC(=O)[C@@H](C)NC(=O)[C@@H](CC(C)C)NC(=O)[C@@H](CCCCN)NC(=O)[C@@H](C)NC(=O)[C@@H](CC(C)C)NC(=O)[C@@H](CCCCN)NC(=O)[C@@H](CCCCN)NC(=O)[C@@H](C)NC(=O)[C@@H](CC(C)C)NC(=O)[C@@H](CCCCN)NC(=O)[C@@H](CCCCN)NC(=O)[C@@H](CC(C)C)NC(=O)[C@@H](CCCCN)NC(=O)[C@@H](CCCCN)NC(=O)[C@@H](C)NC(=O)[C@@H](CC(C)C)NC(=O)[C@@H](CCCCN)NC(=O)[C@@H](CCCCN)NC(=O)[C@@H](C)NC(=O)[C@H](N)Cc1ccccc1)C(=O)O", "note": "[P67]", "values": [
      {"measurement": "CC50 at 24 h", "setting": "in vitro [1]; [13]", "result": 4, "unit": "µg/mL"},
      {"measurement": "CC50 at 24 h", "setting": "in vitro [1]; WI38 LD50, MTT, normal fibroblast line", "result": 95, "unit": "µg/mL"},
      {"measurement": "HC50 at 1 h", "setting": "in vitro [2]", "result": 40, "unit": "µg/mL"}
    ]},
    {"smiles": "CC(C)C[C@H](NC(=O)[C@H](C)NC(=O)[C@H](CC(C)C)NC(=O)[C@H](C)NC(=O)[C@H](CC(C)C)NC(=O)[C@H](CCCCN)NC(=O)[C@H](C)NC(=O)[C@H](CC(C)C)NC(=O)[C@H](CCCCN)NC(=O)[C@H](CCCCN)NC(=O)[C@H](C)NC(=O)[C@H](CC(C)C)NC(=O)[C@H](CCCCN)NC(=O)[C@H](CCCCN)NC(=O)[C@H](CC(C)C)NC(=O)[C@H](CCCCN)NC(=O)[C@H](CCCCN)NC(=O)[C@H](C)NC(=O)[C@H](CC(C)C)NC(=O)[C@H](CCCCN)NC(=O)[C@H](CCCCN)NC(=O)[C@H](C)NC(=O)[C@H](N)Cc1ccccc1)C(=O)O", "note": "[compound 67]", "values": [
      {"measurement": "MBC P. aerug A.27853", "setting": "[3]", "result": 30, "unit": "µg/mL"},
      {"measurement": "MBC S. aur A.25923", "setting": "[4]", "result": 30, "unit": "µg/mL"},
      {"measurement": "Anti-cancer (preferred peptide)", "setting": "cancer cell lines", "result": "X (Preferred anticancer peptides can be selected as having LD50 values of less than or equal to about 25 μg/ml)"},
      {"measurement": "MBC E. coli A.25922", "setting": "[5]", "result": 25, "unit": "µg/mL"},
      {"measurement": "MFC Candida A.10231", "setting": "[6]", "result": ">50", "unit": "µg/mL"}
    ]},
    {"smiles": "CC(C)C[C@H](NC(=O)[C@H](C)NC(=O)[C@H](CC(C)C)NC(=O)[C@H](C)NC(=O)[C@H](CC(C)C)NC(=O)[C@H](CCCCN)NC(=O)[C@H](C)NC(=O)[C@H](CC(C)C)NC(=O)[C@H](CCCCN)NC(=O)[C@H](CCCCN)NC(=O)[C@H](C)NC(=O)[C@H](CC(C)C)NC(=O)[C@H](CCCCN)NC(=O)[C@H](CCCCN)NC(=O)[C@H](CC(C)C)NC(=O)[C@H](CCCCN)NC(=O)[C@H](CCCCN)NC(=O)[C@H](C)NC(=O)[C@H](CC(C)C)NC(=O)[C@H](CCCCN)NC(=O)[C@H](CCCCN)NC(=O)[C@H](C)NC(=O)[C@@H](N)Cc1ccccc1)C(=O)O", "note": "[SHIVA 10 AC]", "values": [
      {"measurement": "CC50 at 24 h", "setting": "in vitro [1]; [13]", "result": 57, "unit": "µg/mL"},
      {"measurement": "WI38 LD50", "setting": "WI38", "result": 57, "unit": "µg/mL"},
      {"measurement": "HeLaS3 LD50", "setting": "HeLaS3", "result": "> (> indicates greater than 1000)"},
      {"measurement": "PC3 LD50", "setting": "PC3", "result": 83, "unit": "µg/mL"},
      {"measurement": "H1299 LD50", "setting": "H1299", "result": "> (> indicates greater than 1000)"},
      {"measurement": "LD50 MCF7", "setting": "MCF7", "result": "> (> indicates greater than 1000)"}
    ]},
    {"smiles": "CC(C)C[C@H](NC(=O)[C@H](C)NC(=O)[C@H](CC(C)C)NC(=O)[C@H](C)NC(=O)[C@H](CC(C)C)NC(=O)[C@H](CCCCN)NC(=O)[C@H](C)NC(=O)[C@H](CC(C)C)NC(=O)[C@H](CCCCN)NC(=O)[C@H](CCCCN)NC(=O)[C@H](C)NC(=O)[C@H](CC(C)C)NC(=O)[C@H](CCCCN)NC(=O)[C@H](CCCCN)NC(=O)[C@H](CC(C)C)NC(=O)[C@H](CCCCN)NC(=O)[C@H](CCCCN)NC(=O)[C@H](C)NC(=O)[C@H](CC(C)C)NC(=O)[C@H](CCCCN)NC(=O)[C@H](CCCCN)NC(=O)[C@H](C)NC(=O)[C@@H](N)Cc1ccccc1)C(=O)O", "note": "[P13, reference compound]", "values": [
      {"measurement": "HC50 at 1 h", "setting": "in vitro [2]", "result": 50, "unit": "µg/mL"},
      {"measurement": "paerug9027 (MIC)", "setting": "[7]", "result": "> (> indicates greater than 200 μg/mL)"},
      {"measurement": "staph6538 (MIC)", "setting": "[8]", "result": 10, "unit": "µg/mL"},
      {"measurement": "yeast (MIC or MFC)", "setting": "[9]", "result": "> (> indicates greater than 200 μg/mL)"}
    ]},
    {"smiles": "CC(C)C[C@H](NC(=O)[C@H](C)NC(=O)[C@H](CC(C)C)NC(=O)[C@H](C)NC(=O)[C@H](CC(C)C)NC(=O)[C@H](CCCCN)NC(=O)[C@H](C)NC(=O)[C@H](CC(C)C)NC(=O)[C@H](CCCCN)NC(=O)[C@H](CCCCN)NC(=O)[C@H](C)NC(=O)[C@H](CC(C)C)NC(=O)[C@H](CCCCN)NC(=O)[C@H](CCCCN)NC(=O)[C@H](CC(C)C)NC(=O)[C@H](CCCCN)NC(=O)[C@H](CCCCN)NC(=O)[C@H](C)NC(=O)[C@H](CC(C)C)NC(=O)[C@H](CCCCN)NC(=O)[C@H](CCCCN)NC(=O)[C@H](C)NC(=O)[C@@H](N)Cc1ccccc1)C(=O)O", "note": "[P13 (6)]", "values": [
      {"measurement": "MIC P. aeruginosa H374", "setting": "P. aeruginosa H374", "result": 16},
      {"measurement": "MIC P. aeruginosa H187", "setting": "[10]", "result": 16},
      {"measurement": "MIC P. aeruginosa Tb 105663", "setting": "[11]", "result": 16},
      {"measurement": "MIC P. aeruginosa Tb 100609", "setting": "[12]", "result": 16}
    ]},
    {"smiles": "CC(C)C[C@H](NC(=O)[C@H](C)NC(=O)[C@H](CC(C)C)NC(=O)[C@H](C)NC(=O)[C@H](CC(C)C)NC(=O)[C@H](CCCCN)NC(=O)[C@H](C)NC(=O)[C@H](CC(C)C)NC(=O)[C@H](CCCCN)NC(=O)[C@H](CCCCN)NC(=O)[C@H](C)NC(=O)[C@H](CC(C)C)NC(=O)[C@H](CCCCN)NC(=O)[C@H](CCCCN)NC(=O)[C@H](CC(C)C)NC(=O)[C@H](CCCCN)NC(=O)[C@H](CCCCN)NC(=O)[C@H](C)NC(=O)[C@H](CC(C)C)NC(=O)[C@H](CCCCN)NC(=O)[C@H](CCCCN)NC(=O)[C@H](C)NC(=O)[C@@H](N)Cc1ccccc1)C(=O)O", "note": "[compound 13]", "values": [
      {"measurement": "MBC P. aerug A.27853", "setting": "[3]", "result": 15, "unit": "µg/mL"},
      {"measurement": "MBC S. aur A.25923", "setting": "[4]", "result": 30, "unit": "µg/mL"},
      {"measurement": "MBC E. coli A.25922", "setting": "[5]", "result": 8, "unit": "µg/mL"},
      {"measurement": "MFC Candida A.10231", "setting": "[6]", "result": ">50", "unit": "µg/mL"}
    ]}
  ]
}
